From PMC10941285, “Symmetrical Bispyridinium Compounds Act as Open Channel Blockers of Cation-Selective Ion Channels” (2024)
Several values for one entry are separate records, joined by “and”; a condition that tells them apart may be missing. Equal values may be shown once.

Chains of the proteins cited; added tags and fusions are not shown. Lines headed by an entry give the natural chain unless they say otherwise; changes in a name come on top. A line that says so, or that is headed by a name, gives the form on record, which may keep a tag or linker. Residues count along the entry.
UniProt P36544, 23-502 limits assumed: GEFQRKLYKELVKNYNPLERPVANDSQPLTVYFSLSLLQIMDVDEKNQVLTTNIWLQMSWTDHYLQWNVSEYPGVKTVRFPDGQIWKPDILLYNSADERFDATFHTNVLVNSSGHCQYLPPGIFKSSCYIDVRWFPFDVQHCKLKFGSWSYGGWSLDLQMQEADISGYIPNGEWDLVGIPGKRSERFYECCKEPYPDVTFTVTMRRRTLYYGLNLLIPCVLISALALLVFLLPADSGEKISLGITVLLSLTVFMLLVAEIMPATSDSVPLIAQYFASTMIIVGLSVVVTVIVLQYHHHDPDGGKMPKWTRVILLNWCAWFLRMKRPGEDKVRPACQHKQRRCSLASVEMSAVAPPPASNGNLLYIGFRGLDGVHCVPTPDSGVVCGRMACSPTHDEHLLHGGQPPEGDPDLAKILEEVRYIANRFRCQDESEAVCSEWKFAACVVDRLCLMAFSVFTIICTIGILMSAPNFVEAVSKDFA
UniProt P36544, 23-502 M276L limits assumed: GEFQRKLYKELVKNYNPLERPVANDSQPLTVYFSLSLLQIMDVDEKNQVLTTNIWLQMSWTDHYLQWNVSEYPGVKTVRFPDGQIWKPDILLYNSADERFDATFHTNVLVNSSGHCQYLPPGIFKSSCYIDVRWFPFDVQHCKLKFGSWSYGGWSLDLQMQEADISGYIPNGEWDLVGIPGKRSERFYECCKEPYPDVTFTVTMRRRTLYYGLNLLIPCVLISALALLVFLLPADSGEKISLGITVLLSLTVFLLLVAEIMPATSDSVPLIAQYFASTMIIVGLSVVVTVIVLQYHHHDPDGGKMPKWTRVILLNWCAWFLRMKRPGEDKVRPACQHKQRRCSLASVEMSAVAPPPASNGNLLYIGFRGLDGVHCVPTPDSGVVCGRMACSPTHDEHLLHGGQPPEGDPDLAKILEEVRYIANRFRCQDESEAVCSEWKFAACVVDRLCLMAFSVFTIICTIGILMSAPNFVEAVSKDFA
UniProt P36544, with tags, fused parts or gaps limits assumed: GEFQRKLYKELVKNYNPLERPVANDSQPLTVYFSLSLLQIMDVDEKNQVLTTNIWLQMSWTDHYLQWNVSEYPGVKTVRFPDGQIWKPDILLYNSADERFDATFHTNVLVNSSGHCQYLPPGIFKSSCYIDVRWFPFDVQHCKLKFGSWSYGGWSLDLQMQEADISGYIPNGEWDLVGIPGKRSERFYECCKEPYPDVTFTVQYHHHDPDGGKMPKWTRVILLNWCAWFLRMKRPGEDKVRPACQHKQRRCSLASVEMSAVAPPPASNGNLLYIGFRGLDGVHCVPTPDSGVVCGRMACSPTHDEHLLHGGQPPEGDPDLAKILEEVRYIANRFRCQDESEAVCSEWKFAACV
UniProt P36544, with tags, fused parts or gaps E260A/INS259P/V274T limits assumed: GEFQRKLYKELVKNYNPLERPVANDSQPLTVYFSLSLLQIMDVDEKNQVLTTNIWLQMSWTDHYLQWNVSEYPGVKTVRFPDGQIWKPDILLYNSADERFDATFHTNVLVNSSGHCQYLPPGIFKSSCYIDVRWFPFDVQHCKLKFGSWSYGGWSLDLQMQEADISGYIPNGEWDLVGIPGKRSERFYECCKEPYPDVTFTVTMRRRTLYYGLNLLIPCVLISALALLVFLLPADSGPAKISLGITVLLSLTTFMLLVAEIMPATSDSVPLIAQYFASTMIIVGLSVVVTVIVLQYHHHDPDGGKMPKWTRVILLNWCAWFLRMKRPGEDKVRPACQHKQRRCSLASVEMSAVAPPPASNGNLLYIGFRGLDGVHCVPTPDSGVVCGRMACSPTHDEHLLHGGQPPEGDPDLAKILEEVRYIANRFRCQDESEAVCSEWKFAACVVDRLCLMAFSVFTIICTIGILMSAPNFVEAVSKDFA
UniProt P36544, 23-502 Y210F/A280S/E281D/I282T limits assumed: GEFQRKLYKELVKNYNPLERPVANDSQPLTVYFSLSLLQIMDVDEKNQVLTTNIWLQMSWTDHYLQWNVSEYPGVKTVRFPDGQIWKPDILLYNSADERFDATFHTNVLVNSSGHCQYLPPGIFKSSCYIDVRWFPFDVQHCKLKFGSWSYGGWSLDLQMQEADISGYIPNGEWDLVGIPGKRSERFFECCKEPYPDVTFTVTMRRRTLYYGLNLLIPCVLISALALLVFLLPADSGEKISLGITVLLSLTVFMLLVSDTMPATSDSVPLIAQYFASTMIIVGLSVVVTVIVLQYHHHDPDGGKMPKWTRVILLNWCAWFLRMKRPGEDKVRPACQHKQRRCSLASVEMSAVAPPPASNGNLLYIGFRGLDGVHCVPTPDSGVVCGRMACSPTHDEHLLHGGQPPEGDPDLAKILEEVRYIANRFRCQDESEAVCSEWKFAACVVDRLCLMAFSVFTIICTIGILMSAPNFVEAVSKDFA
UniProt P36544, 23-502 A280S/E281D/I282T limits assumed: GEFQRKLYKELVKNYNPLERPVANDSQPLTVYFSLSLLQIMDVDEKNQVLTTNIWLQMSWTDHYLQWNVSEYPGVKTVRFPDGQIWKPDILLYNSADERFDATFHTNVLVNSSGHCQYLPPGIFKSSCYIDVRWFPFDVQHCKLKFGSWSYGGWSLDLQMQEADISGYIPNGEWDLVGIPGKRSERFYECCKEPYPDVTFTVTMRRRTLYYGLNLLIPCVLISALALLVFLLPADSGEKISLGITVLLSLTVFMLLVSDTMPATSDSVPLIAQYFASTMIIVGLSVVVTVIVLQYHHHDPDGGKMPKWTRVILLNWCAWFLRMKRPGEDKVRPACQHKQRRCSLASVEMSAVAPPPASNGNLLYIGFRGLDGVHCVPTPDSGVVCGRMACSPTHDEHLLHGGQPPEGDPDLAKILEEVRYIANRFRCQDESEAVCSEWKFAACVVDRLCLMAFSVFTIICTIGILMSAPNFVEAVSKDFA
UniProt P36544, with tags, fused parts or gaps E260A/E281R/INS259P/V274T limits assumed: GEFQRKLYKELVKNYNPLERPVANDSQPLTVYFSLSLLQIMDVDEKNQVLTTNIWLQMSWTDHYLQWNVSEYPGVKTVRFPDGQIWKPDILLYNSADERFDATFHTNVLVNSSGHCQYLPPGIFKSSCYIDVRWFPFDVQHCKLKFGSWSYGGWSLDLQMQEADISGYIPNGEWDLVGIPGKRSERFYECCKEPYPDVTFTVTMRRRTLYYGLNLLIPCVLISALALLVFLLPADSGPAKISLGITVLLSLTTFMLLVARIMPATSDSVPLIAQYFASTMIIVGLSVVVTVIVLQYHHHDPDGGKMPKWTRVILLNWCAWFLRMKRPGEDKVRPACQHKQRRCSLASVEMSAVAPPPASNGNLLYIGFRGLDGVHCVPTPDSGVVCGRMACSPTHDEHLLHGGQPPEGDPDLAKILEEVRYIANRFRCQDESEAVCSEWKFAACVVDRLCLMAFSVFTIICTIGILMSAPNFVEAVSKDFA
UniProt P23979, with tags, fused parts or gaps limits assumed: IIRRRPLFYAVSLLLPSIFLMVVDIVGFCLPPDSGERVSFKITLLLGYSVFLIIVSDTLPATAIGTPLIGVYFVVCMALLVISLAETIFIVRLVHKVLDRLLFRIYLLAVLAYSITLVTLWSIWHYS
UniProt P23979, 24-489 S297A/D298E/T299I limits assumed: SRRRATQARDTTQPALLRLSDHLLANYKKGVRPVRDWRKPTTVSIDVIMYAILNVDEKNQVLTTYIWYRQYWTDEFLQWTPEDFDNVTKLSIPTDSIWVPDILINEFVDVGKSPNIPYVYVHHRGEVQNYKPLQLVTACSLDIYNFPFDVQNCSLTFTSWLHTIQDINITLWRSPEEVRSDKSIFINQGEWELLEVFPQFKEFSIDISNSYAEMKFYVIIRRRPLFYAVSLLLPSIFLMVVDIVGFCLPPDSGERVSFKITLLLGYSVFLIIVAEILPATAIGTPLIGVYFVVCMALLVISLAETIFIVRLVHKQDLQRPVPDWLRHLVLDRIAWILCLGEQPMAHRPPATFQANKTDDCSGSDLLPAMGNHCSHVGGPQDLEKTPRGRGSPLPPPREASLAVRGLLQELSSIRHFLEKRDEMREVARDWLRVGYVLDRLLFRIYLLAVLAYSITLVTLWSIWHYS
UniProt P23979, 24-489 limits assumed: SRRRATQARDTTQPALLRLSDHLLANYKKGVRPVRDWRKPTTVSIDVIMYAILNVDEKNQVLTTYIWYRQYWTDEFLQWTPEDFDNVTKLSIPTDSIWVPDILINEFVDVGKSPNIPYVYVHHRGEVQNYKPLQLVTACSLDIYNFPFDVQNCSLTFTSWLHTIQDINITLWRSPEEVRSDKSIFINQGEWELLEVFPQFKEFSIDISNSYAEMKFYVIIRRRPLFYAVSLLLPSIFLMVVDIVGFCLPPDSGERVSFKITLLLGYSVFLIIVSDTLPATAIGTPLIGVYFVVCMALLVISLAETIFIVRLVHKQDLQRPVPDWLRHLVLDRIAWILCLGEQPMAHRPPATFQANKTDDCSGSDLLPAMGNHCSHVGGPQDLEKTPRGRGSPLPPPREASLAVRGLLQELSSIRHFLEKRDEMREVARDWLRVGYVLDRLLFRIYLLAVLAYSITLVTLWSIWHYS
UniProt P11230, 24-501 limits assumed: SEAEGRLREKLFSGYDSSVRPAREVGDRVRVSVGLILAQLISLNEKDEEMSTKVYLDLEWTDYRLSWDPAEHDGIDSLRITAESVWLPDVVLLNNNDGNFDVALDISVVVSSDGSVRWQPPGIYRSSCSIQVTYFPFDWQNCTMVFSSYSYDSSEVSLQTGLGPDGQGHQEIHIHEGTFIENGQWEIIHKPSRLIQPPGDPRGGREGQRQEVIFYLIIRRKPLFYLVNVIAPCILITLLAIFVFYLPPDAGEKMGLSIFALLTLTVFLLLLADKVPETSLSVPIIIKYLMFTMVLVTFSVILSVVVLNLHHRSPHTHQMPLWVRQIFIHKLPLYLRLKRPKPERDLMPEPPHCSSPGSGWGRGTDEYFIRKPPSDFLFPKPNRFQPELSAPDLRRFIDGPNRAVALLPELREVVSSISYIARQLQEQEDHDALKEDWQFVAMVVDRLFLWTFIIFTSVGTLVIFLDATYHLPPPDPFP
UniProt P11230, 24-501 A295S limits assumed: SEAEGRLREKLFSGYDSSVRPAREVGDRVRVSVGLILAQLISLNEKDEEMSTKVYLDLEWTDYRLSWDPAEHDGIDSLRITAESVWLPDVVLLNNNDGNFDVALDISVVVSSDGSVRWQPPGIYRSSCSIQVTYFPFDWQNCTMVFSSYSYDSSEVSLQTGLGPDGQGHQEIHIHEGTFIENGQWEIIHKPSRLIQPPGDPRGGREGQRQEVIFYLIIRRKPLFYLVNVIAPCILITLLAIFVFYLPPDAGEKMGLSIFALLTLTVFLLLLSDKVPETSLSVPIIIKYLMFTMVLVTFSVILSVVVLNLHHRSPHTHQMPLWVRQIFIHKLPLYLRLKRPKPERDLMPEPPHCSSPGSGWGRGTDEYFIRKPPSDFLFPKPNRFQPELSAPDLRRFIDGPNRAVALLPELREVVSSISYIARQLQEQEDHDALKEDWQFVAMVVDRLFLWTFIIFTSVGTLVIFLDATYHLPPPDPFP
UniProt Q07001, 22-517 limits assumed: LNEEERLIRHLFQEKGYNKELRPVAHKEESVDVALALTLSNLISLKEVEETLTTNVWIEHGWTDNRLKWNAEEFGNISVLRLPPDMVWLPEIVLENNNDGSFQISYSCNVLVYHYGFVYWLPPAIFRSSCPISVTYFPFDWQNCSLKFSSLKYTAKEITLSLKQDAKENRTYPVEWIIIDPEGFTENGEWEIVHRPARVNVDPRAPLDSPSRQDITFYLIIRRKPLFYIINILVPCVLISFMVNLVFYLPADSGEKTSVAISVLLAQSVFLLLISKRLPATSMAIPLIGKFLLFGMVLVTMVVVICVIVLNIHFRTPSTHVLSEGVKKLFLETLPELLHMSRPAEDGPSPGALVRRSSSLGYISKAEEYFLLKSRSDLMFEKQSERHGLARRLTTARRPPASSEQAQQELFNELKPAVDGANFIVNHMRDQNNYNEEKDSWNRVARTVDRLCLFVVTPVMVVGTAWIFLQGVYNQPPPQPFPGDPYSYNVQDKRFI
UniProt P43681, 27-627 limits assumed: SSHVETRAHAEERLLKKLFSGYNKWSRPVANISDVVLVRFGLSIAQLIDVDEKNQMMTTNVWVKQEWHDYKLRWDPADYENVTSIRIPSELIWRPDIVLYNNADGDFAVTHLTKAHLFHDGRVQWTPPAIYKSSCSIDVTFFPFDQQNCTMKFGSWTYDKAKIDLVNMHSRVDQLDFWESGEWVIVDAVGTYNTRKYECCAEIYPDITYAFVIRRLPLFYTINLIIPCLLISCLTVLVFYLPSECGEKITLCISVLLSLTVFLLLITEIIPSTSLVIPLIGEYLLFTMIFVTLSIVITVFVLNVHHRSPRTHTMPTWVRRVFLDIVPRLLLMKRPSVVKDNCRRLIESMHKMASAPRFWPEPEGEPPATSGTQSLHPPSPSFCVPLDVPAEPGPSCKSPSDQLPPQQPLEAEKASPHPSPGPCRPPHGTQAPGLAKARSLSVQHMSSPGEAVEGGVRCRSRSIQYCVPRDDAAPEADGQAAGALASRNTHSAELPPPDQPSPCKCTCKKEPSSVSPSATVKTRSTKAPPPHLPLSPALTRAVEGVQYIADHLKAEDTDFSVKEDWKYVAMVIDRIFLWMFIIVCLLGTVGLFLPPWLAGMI

Legend:
[1] = target: T1, α7 nAChR (Homo sapiens, UniProt P36544); experiment: ACh dose–response curves (TEVC, oocytes) without and in the presence of BPCs, α7
[2] = target: T1, α7 nAChR; experiment: TEVC of ACh-activated currents with preincubation and co-application of compounds, α7 nAChR expressed in Xenopus laevis oocytes; conditions: for IC50 ratio relative to MB327, α7: IC50(MB327)/IC50(compound); for Hill coefficient nH of inhibition, α7: dose-inhibition curve, −70 mV; for pIC50 (M) at α7: log-transformed IC50 of Table 1; for effect on α7 ACh-activated currents: tested concentrations up to 30 μM; for mean response at α7 (normalized to current before compound): EC80 agonist; for voltage-dependency of inhibition at α7: −100 mV compared with −50 mV, MLA 3 nM
[3] = target: T1, α7 nAChR; experiment: α7 resensitization after 1 min desensitization with 1 mM ACh (TEVC, oocytes); conditions: 1 min 1 mM ACh; 3 μM PTM0022 or 10 μM PNU120596 co-applied
[4] = target: T1, α7 nAChR; experiment: Manual whole-cell patch-clamp of CHO cells stably expressing human α7 nAChRs; conditions: 30 µM, −60 mV
[5] = target: human α7 M253L nAChR (Homo sapiens, UniProt P36544, M276L); experiment: TEVC dose-inhibition / potentiation at α7 PAM binding site mutant M253L in oocytes; conditions: for IC50(α7)/IC50(M253L): fold potency increase on the M253L mutation
[6] = target: α7^4TM5HT3A chimera (Homo sapiens; Mus musculus, UniProt P23979+P36544); experiment: TEVC (ACh dose response and inhibition by compounds) at α7^4TM5HT3A chimera in oocytes; conditions: 1 μM PTM0022, 10 μM MB327, 30 μM QX-314
[7] = target: T2, human (α1)2β1εδ nAChR (Homo sapiens, UniProt P02708+P11230+Q04844+Q07001); experiment: ACh dose–response curves (TEVC, oocytes) without and in the presence of BPCs, muscle-type
[8] = target: α7^Anion (P236 insertion, E237A, V251T) (Homo sapiens, UniProt P36544, E260A/INS259P/V274T); experiment: TEVC (ACh dose response and inhibition by compounds) at α7 triple mutant α7^Anion in oocytes; conditions: 1 μM PTM0022, 10 μM MB327, 30 μM QX-314
[9] = target: PNU120596-potentiated α7 nAChR (Homo sapiens, UniProt P36544); experiment: Co-application of BPCs or QX-314 upon preapplication of 10 μM PNU120596 and 100 μM ACh (TEVC, oocytes); conditions: concentrations producing 70–90% block at α7 in the absence of PNU120596
[10] = target: T2, human (α1)2β1εδ nAChR; experiment: TEVC of ACh-activated currents with preincubation and co-application of compounds, muscle-type nAChR expressed in Xenopus laevis oocytes; conditions: for voltage-dependency of inhibition at muscle-type nAChR: −100 mV compared with −50 mV
[11] = target: α4β2 nAChR (Homo sapiens, UniProt P17787+P43681); experiment: TEVC inhibition at α4β2 nAChR in oocytes; conditions: 10 μM, −50 and −100 mV
[12] = target: P2X7 receptor (Homo sapiens, UniProt Q99572); experiment: TEVC inhibition at P2X7 receptor in oocytes; conditions: −50 and −100 mV
[13] = target: NaV1.4 (Rattus norvegicus, UniProt P15390); experiment: TEVC of sodium peak currents of NaV1.4 in oocytes; conditions: 10 μM
[14] = target: 5HT3A receptor (SDT into AEI) (Mus musculus, UniProt P23979, D298E/S297A/T299I); experiment: TEVC inhibition by PTM0022 at 5HT3A AEI mutant in oocytes; conditions: 1 μM PTM0022
[15] = target: muscle-type nAChR α1 ST, β1 A272S (Homo sapiens, UniProt P02708+P11230+Q04844+Q07001, A295S/L283T/V281S); experiment: TEVC inhibition by PTM0022 at muscle-type nAChR mutant in oocytes; conditions: 1 μM PTM0022
[16] = target: 5HT3A receptor (Mus musculus, UniProt P23979); experiment: TEVC inhibition of 5HT-evoked currents at 5HT3A receptor in oocytes; conditions: −50 and −100 mV
[17] = target: α7 257-259SDT, Y210F (Homo sapiens, UniProt P36544, A280S/E281D/I282T/Y210F); experiment: TEVC inhibition by PTM0022 at α7 257-259SDT, Y210F mutant in oocytes; conditions: 1 μM PTM0022
[18] = target: α7 SDT (A257S, E258D, I259T) (Homo sapiens, UniProt P36544, A280S/E281D/I282T); experiment: TEVC (ACh dose response and inhibition by PTM0022) at α7 SDT mutant in oocytes; conditions: 1 μM PTM0022, compared with α7
[19] = target: α7^Anion E258R (Homo sapiens, UniProt P36544, E260A/E281R/INS259P/V274T); experiment: TEVC (ACh dose response and inhibition by compounds) at α7^Anion E258R in oocytes; conditions: 1 μM PTM0022

CN(C)c1ccc[n+](CCC[n+]2cccc(N(C)C)c2)c1
nH of ACh in the presence of BPC, α7 ([1]; +10 μM of the BPC): 1.93
IC50 ratio relative to MB327, α7 [2]: 0.50
Hill coefficient nH of inhibition, α7 [2]: –1.04
pIC50 (M) at α7 [2]: -5.16 M

COc1cc[n+](CCC[n+]2ccc(OC)cc2)cc1
pIC50 (M) at α7 [2]: > -4.50 M
effect on α7 ACh-activated currents [2]: no effect

CC(C)(C)c1cccc[n+]1CCC[n+]1ccccc1C(C)(C)C
nH of ACh in the presence of BPC, α7 ([1]; +3 μM of the BPC): 1.57
IC50 ratio relative to MB327, α7 [2]: 0.74
Hill coefficient nH of inhibition, α7 [2]: –1.14
pIC50 (M) at α7 [2]: -5.33 M

CCOC(=O)c1c[n+](CCC[n+]2ccc(C(C)(C)C)c(C(=O)OCC)c2)ccc1C(C)(C)C
nH of ACh in the presence of BPC, α7 ([1]; +3 μM of the BPC): 1.53
IC50 ratio relative to MB327, α7 [2]: 7.14
Hill coefficient nH of inhibition, α7 [2]: –0.94
pIC50 (M) at α7 [2]: -6.31 M

COc1ccc[n+](CCC[n+]2cccc(OC)c2)c1
pIC50 (M) at α7 [2]: > -4.50 M
effect on α7 ACh-activated currents [2]: no effect

CC(C)(C)c1cc[n+](CCC[n+]2ccc(C(C)(C)C)cc2)cc1
recovery/resensitization of desensitized α7 nAChR [3]: no current increase was observed
effect on ACh (100 µM)-evoked currents in CHO cells [4]: inhibits
nH of ACh in the presence of BPC, α7 ([1]; +3 μM of the BPC): 1.66
nH of inhibition at α7 M253L [5]: –0.98
IC50(α7)/IC50(M253L) [5]: 4 and 4.17
potency at α7^4TM5HT3A chimera (α7 ICD introduced) [6]: significantly increased potency
nH of ACh in the presence of BPC, (α1)2β1εδ ([7]; +10 μM of the BPC): 1.10
inhibition at α7^Anion [8]: Neither QX-314 nor MB327 were able to inhibit this mutant
block of the PNU120596-potentiated α7 current [9]: quickly reversible inhibition, although to a much smaller extent
mean response at α7 (normalized to current before compound) ([2]; 10 μM compound): 36.3%
IC50 ratio relative to MB327, α7 [2]: 1.00
Hill coefficient nH of inhibition, α7 [2]: –0.84
voltage-dependency of inhibition at α7 [2]: significantly stronger inhibition
voltage-dependency of inhibition at muscle-type nAChR [10]: even more pronounced

COc1cccc[n+]1CCC[n+]1ccccc1OC
IC50 ratio relative to MB327, α7 [2]: 0.09
Hill coefficient nH of inhibition, α7 [2]: –0.91
pIC50 (M) at α7 [2]: ~ -4.30 M

CC(C)(C)c1cc[n+](CCC[n+]2ccc(C(C)(C)C)c(-c3ccccc3)c2)cc1-c1ccccc1
inhibition of α4β2 nAChR [11]: did not inhibit
inhibition of P2X7 receptor [12]: slightly inhibited but in a voltage-independent way
effect on NaV1.4 sodium peak currents [13]: not affected
inhibition at 5HT3A with reverse substitutions (SDT into AEI) [14]: not reconstitute α7-like properties
inhibition at muscle-type nAChR α1 ST, β1 A272S [15]: no change in inhibition
inhibition of 5HT3A, voltage-dependency [16]: voltage-dependent inhibition
inhibition at α7 257-259SDT, Y210F [17]: even further reduced
recovery/resensitization of desensitized α7 nAChR [3]: no current increase was observed
inhibition at α7 SDT (A257S, E258D, I259T) [18]: reduces the potency of 1 μM PTM0022 already significantly
nH of ACh in the presence of BPC, α7 ([1]; +0.3 μM of the BPC): 1.46
inhibition at α7^Anion E258R [19]: completely abolished
nH of inhibition at α7 M253L [5]: –1.76
IC50(α7)/IC50(M253L) [5]: 0.67
potency at α7^4TM5HT3A chimera (α7 ICD introduced) [6]: did not result in a substantial potency increase
nH of ACh in the presence of BPC, (α1)2β1εδ ([7]; +1 μM of the BPC): 1.06
inhibition at α7^Anion [8]: significantly reduced but not eliminated
block of the PNU120596-potentiated α7 current [9]: fast and almost complete block
mean response at α7 (normalized to current before compound) ([2]; 1 μM compound): 9.3%
IC50 ratio relative to MB327, α7 [2]: 17.50
Hill coefficient nH of inhibition, α7 [2]: –1.07
pIC50 (M) at α7 [2]: -6.70 M
voltage-dependency of inhibition at α7 [2]: significantly stronger inhibition
Hill coefficient nH of inhibition, (α1)2β1εδ ([10]; dose-inhibition curve, −70 mV): –0.84
voltage-dependency of inhibition at muscle-type nAChR [10]: even more pronounced

CCN1C[C@]2(COC(=O)c3ccccc3N3C(=O)C[C@H](C)C3=O)CC[C@H](OC)[C@@]34[C@@H]5C[C@H]6[C@H](OC)[C@@H]5[C@](O)(C[C@@H]6OC)[C@@](O)([C@@H](OC)[C@H]23)[C@@H]14
voltage-dependency of inhibition at α7 [2]: did not show an altered response

CC[N+](CC)(CC)CC(=O)Nc1c(C)cccc1C
recovery/resensitization of desensitized α7 nAChR [3]: no current increase was observed
potency at α7^4TM5HT3A chimera (α7 ICD introduced) [6]: did not result in a substantial potency increase
inhibition at α7^Anion [8]: Neither QX-314 nor MB327 were able to inhibit this mutant
block of the PNU120596-potentiated α7 current [9]: unable to block at all
mean response at α7 (normalized to current before compound) ([2]; 30 μM compound): 9.6%
IC50 ratio relative to MB327, α7 [2]: 0.70
Hill coefficient nH of inhibition, α7 [2]: –0.89
pIC50 (M) at α7 [2]: -5.30 M
voltage-dependency of inhibition at α7 [2]: significantly stronger inhibition of ACh-evoked responses at −100 mV

CC(C)(C)c1ccc[n+](CCC[n+]2cccc(C(C)(C)C)c2)c1
IC50 ratio relative to MB327, α7 [2]: 1.10
Hill coefficient nH of inhibition, α7 [2]: –1.23
pIC50 (M) at α7 [2]: -5.50 M
